Results: PubChem BioAssay AID602141 (Sanford-Burnham Center for Chemical Genomics, 2011)
This is a selection; strong and weak results do not stand in their true shares. Activity calls are given as the source filed them.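 The calls were made as follows: active = corrected activity change at or below -50% at 5 µM; inactive = the rest.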

Assay: KKLEB cell viability reduction – uHTS, fluorescence assay plates, cytotoxicity control for CF NF-kB inhibitor project, primary screen (AID 602141)
Settings: KKLEB CF airway cells viability, ATPlite luminescence, overnight; at 5 µM; stronger effect = lower value; cells stimulated with P. aeruginosa culture filtrate
In the case of `CCC(=O)N(c1ccccc1)C1(COC)CCN(CCn2nnn(CC)c2=O)CC1`, the activity change (cytotoxicity) is reported as inactive: -5.9%. For `CCC(=O)N(c1ccccc1)C1(COC)CCN(CCc2cccs2)CC1`, the activity change (cytotoxicity) was inactive: -4.1%.
